Patent publication US8901315B2, “Thienopyrazole derivative having PDE7 inhibitory activity” (Daiichi Sankyo Company, Limited, priority 2004, dated 2014)
Where a name gives a salt, the structure may show the parent alone.

Chains of the proteins cited; added tags and fusions are not shown. Lines headed by an entry give the natural chain unless they say otherwise; changes in a name come on top.
UniProt Q13946: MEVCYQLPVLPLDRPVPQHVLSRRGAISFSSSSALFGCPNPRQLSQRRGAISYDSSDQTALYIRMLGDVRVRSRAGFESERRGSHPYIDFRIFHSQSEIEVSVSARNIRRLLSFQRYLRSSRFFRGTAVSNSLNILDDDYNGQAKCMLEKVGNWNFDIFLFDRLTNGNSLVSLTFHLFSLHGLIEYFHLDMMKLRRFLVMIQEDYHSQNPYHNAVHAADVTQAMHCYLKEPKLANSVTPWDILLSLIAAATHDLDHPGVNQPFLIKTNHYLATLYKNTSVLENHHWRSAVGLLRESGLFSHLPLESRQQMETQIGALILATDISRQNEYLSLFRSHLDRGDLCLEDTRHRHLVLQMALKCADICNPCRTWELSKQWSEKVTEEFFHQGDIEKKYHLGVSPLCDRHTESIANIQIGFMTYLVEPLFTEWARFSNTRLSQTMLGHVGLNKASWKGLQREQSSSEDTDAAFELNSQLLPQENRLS

Legend:
[1] = biological target: PDE 7 (phosphodiesterase VII) (Homo sapiens (Human), UniProt Q13946); assay: PDE 7 inhibiting effect (3H-cAMP hydrolysis, PDE 7 active fraction from MOLT-4 cells); assay type: biochemical; conditions: PDE 7 fraction from MOLT-4 cells, 0.064 μM cAMP, 10 μM rolipram, 2 hours at 25° C.; read-out: PDE7 IC50
Protocol: Methods for Evaluating the PDE 7 Inhibiting Effect
The PDE 7 (phosphodiesterase VII) inhibiting effect of the compounds of the present invention was performed by the following method, which was modified assay method described in Biochemical. Pharmacol. 48(6), 1219-1223 (1994). • (1) The active fraction of PDE 7 (phosphodiesterase VII) was obtained. That is, MOLT-4 (obtainable from ATCC as ATCC No. CRL-1582), which was cell line of human acute lymphoblastic lymphoma T cells, was incubated in RPMI1640 culture medium containing 10% fetal bovine serum to obtain 5×10^8 MOLT-4 cells. The cells were collected by centrifugation and suspended with 10 mL of buffer solution A [25 mM of tris-HCl, 5 mM of 2-mercaptoethanol, 2 mM of benzamidine, 2 mM of EDTA, 0.1 mM of 4-(2-aminoethyl)benzenesulfonyl hydrochloride; pH 7.5], then homogenized by Polytron® homogenizer. The homogenate were centrifuged under 25,000×G for 10 minutes at 4° C. The supernatant was separated and thus obtained supernatant was further centrifuged under 100,000×G for 60 minutes at 4° C., and then filtrated with 0.2 μm filter to obtain the soluble fraction. • (2) The obtained soluble fraction was filled in equilibrium HiTrap Q column (5 mL×2) with buffer solution A, and phosphodiesterase fractions were eluted by 300 mL of buffer solution A with linear gradient from 0 to 0.8 M NaCl concentration. 5 mL each of 60 eluents were collected, and each eluents were examined for cyclic AMP metabolic activities of phosphodiesterase. […] After the reaction, suspension of Sephadex®-QAE in 10 mM of HEPES-Na (pH 7.0) was added to the reaction mixture, and the mixture was left at rest for 5 minutes.

[2] = biological target: PDE 4 (phosphodiesterase IV); assay: PDE 4 inhibiting effect (3H-cAMP hydrolysis, PDE 4 active fraction from Balb/c mouse liver); assay type: biochemical; conditions: PDE 4 fraction from Balb/c mice liver, 0.064 μM cAMP, 2 hours at 25° C.; read-out: PDE4 IC50
Protocol: Methods for Evaluating the PDE 4 Inhibiting Effect
The PDE 4 (phosphodiesterase IV) inhibiting effect of the compounds of the present invention was performed by the following method, which was modified assay method described in Biochemical. […] That is, the livers obtained from three Balb/c mice (male, 12 weeks: obtainable from CLEA Japan, Inc.) were suspended with 30 mL of buffer solution B [20 mM of bis-tris, 5 mM of 2-mercaptoethanol, 2 mM of benzamidine, 2 mM of EDTA, 0.1 mM of 4-(2-aminoethyl)benzenesulfonyl hydrochloride, 50 mM of sodium acetate; pH 6.5], then homogenized by Polytron® homogenizer. The homogenate were centrifuged under 25,000×G for 10 minutes at 4° C. The supernatant was separated and thus obtained supernatant was further centrifuged under 100,000×G for 60 minutes at 4° C., and then filtrated with 0.2 μm filter to obtain the soluble fraction. • (2) The obtained soluble fraction was filled in equilibrium DEAE sepharose column (1×10 cm) with buffer solution B, and phosphodiesterase fractions were eluted by 120 mL of buffer solution B with linear gradient from 0.05 to 1M sodium acetate concentration. 5 mL each of 24 eluents were collected, and each eluents were examined for cyclic AMP metabolic activities of phosphodiesterase. […] After the reaction, suspension of Sephadex®-QAE in 10 mM of HEPES-Na (pH 7.0) was added to the reaction mixture, and the mixture was left at rest for 5 minutes.

Row | SMILES | IC50 [1] [nM] | IC50 [2] [µM]
1 | Cc1nn(C2CCCCC2)c2sc(C(=O)N[C@H]3CC[C@H](N)CC3)cc12 [Example 132, N-(trans-4-Aminocyclohexyl)-1-cyclohexyl-3-methyl-1H-thieno[2,3-c]pyrazole-5-carboxamide] | 88 | –
2 | Cc1nn(C2CCCCC2)c2sc(C(=O)N[C@H]3CC[C@H](N4CCOCC4)CC3)cc12 [Example 133, 1-Cyclohexyl-3-methyl-N-[trans-4-(4-morpholinyl)cyclohexyl]-1H-thieno[2,3-c]pyrazole-5-carboxamide] | 9 | –
3 | Cc1nn(C2CCCCC2)c2sc(C(=O)N[C@H]3CC[C@H](C(=O)N(C)CCO)CC3)cc12 [Example 225, 1-Cyclohexyl-N-(4-{[(2-hydroxyethyl)(methyl)amino]carbonyl}-cyclohexyl)-3-methyl-1H-thieno[2,3-c]pyrazole-5-carboxamide] | 18 | 2
4 | Cc1nn(C2CCCCC2)c2sc(C(=O)N[C@H]3CC[C@H](C(=O)NC4CC4)CC3)cc12 [Example 238, 1-Cyclohexyl-N-{4-[(cyclopropylamino)carbonyl]cyclohexyl}-3-methyl-1H-thieno[2,3-c]pyrazole-5-carboxamide HCl salt] | 7.8 | –
5 | Cc1nn(C2CCOCC2)c2sc(C(=O)N[C@H]3CC[C@H](CN4CCOCC4)CC3)cc12 [Example 358, 3-Methyl-N-[trans-4-(4-morpholinylmethyl)cyclohexyl]-1-tetrahydro-2H-pyran-4-yl-1H-thieno[2,3-c]pyrazole-5-carboxamide] | 71 | 11
6 | Cc1nn(C2CCCCC2)c2sc(C(=O)Nc3ccc(CN4CCOCC4)nc3)cc12 [Example 412, 1-Cyclohexyl-3-methyl-N-[6-(4-morpholinylmethyl)-3-pyridinyl]-1H-thieno[2,3-c]pyrazole-5-carboxamide methanesulfonate] | – | 4.9
